This assay concerns the target 5-hydroxytryptamine receptor 2A (Homo sapiens, UniProt P28223).

By UniProt entry, the sequences of proteins in these tests, tags left out.
UniProt P28223, whole entry: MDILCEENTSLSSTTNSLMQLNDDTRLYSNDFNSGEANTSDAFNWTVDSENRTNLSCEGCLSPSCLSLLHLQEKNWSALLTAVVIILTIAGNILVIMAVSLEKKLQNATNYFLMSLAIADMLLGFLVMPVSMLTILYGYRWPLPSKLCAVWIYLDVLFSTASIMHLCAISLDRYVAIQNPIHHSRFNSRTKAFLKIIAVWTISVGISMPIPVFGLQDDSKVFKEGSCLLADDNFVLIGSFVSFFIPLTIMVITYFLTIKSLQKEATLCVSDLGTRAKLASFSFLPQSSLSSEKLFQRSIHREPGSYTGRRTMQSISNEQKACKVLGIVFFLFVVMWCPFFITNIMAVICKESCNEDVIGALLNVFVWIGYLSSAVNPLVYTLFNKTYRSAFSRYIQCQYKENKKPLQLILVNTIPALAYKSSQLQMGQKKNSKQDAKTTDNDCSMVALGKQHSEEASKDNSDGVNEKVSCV

SMILES strings stand for the structures. “And” between values parts separate entries of the source, which are not always exact repeats. Equal entries are not always repeated.

Results on 1 molecule are retold here after BindingDB's records for doi:10.1002/(SICI)1098-2396(200002)35:2<144::AID-SYN7>3.0.CO;2-K (Albany Medical College, 2000).

Regarding `Clc1cccc(N2CCNCC2)c1` [mCPP], the Ki was 74 nM and 212 nM.
